According to US20240360219A1 (FBD BIOLOGICS, published 2024):
Values belong to the binder of their own block, whether it stands above or below them.

Experiments:
[1] = biological target: T1, human CD47 (human, UniProt Q08722); experiment: flow cytometry on CD47 tf CHO-S cells, PE anti-human IgG
T1 construct: whole, on cells; also called CD47 tf CHO-S; cluster of differentiation 47

[2] = biological target: T2, human TGFβ3 (human, UniProt P10600 301-412); experiment: ELISA, plate coated with 1 µg/ml human TGFβ3, HRP secondary antibody, OD 450 nm
T2 construct: also called hTGFβ3
T2 sequence (looked up): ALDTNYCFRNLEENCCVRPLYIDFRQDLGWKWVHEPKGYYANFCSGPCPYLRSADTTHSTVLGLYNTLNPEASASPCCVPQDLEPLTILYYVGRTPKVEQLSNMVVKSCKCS

[3] = biological target: T3, human TGFβ2 (human, UniProt P61812 303-414); experiment: ELISA, plate coated with 1 µg/ml human TGFβ2, HRP secondary antibody, OD 450 nm; curve without plateau
T3 construct: also called hTGFβ2
T3 sequence (looked up): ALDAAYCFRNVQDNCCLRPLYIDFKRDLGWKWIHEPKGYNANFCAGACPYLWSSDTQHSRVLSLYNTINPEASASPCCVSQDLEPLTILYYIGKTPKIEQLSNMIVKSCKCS

[4] = biological target: T4, human PD-L1 (human); experiment: flow cytometry blocking assay on PD-L1 tf CHO-S cells; competitor: fixed concentration of biotinylated PD1_G4 (biotin-PD1-ECD-Fc), streptavidin-PE
T4 construct: whole, on cells; also called PDL1 tf CHO-S; PD-L1 tf OE19

[5] = biological target: T3, human TGFβ2; experiment: ELISA, plate coated with 1 µg/ml human TGFβ2, HRP secondary antibody, OD 450 nm; the printed EC50 lies above the highest concentration shown (500 nM)
[6] = biological target: T4, human PD-L1; experiment: flow cytometry on PDL1 tf CHO-S cells, PE anti-human IgG

B1: PD1_G4 (Fc fusion)
chain: DSPDRPWNPPTFSPALLVVTEGDNATFTCSFSNTSESFVLNWYRMSPSNQTDKLAAFPEDRSQPGQDCRFRVTQLPNGRDFHMSVVRARRNDSGTYLCGAISLAPKAQIKESLRAELRVTERRAEVPTAHPSPSPRPAGQFQTLVESKYGPPCPPCPAPEFLGGPSVFLFPPKPKDTLMISRTPEVTCVVVDVSQEDPEVQFNWYVDGVEVHNAKTKPREEQFNSTYRVVSVLTVLHQDWLNGKEYKCKVSNKGLPSSIEKTISKAKGQPREPQVYTLPPSQEEMTKNQVSLTCLVKGFYPSDIAVEWESNGQPENNYKTTPPVLDSDGSFFLYSRLTVDKSRWQEGNVFSCSVMHEALHNHYTQKSLSLSLGK
notes: Control protein; also called PD1-ECD-Fc
- binding result [1]: no binding (tested: 500 nM)

B4: HCB301-3 (Fc fusion)
chain: [about 120 residues not shown]KPSGSGGSGGSGGSGGSGGSGDSPDRPWNPPTFSPALLVVTEGDNATFTCSFSNTSESFVLNWYRMSPSNQTDKLAAFPEDRSQPGQDCRFRVTQLPNGRDFHMSVVRARRNDSGTYLCGAISLAPKAQIKESLRAELRVTERRAEVPTAHPSPSPRPAGQFQTLVESKYGPPCPPCPAPEFLGGPSVFLFPPKPKDTLMISRTPEVTCVVVDVSQEDPEVQFNWYVDGVEVHNAKTKPREEQFNSTYRVVSVLTVLHQDWLNGKEYKCKVSNKGLPSSIEKTISKAKGQPREPQVYTLPPSQEEMTKNQVSLTCLVKGFYPSDIAVEWESNGQPENNYKTTPPVLDSDGSFFLYSRLTVDKSRWQEGNVFSCSVMHEALHNHYTQKSLSLSLGAGGGGSGGGGSGGGGSGGGGSGIPPHVQKSVNNDMIVTDNNGAVKFPQLCKFCDVRFSTCDNQKSCMSNCSITSICEKPQEVCVAVWRKNDENITLETVCHDPKLPYHDFILEDAASPKCIMKEKKKPGETFFMCSCSSDECNDNIIFSEEYNTSNPD
notes: expressed in CHO-S cells
- binding result [1]: binds
- binding result [6]: binds
- EC50 [2]: 1.45 nM

The remaining binders from weak to strong by EC50 [2], led by results:

- EC50 [2]: 1.76 nM
- IC50 (read off the curve) [4]: ~2 nM
- EC50 [5]: 1130 nM
B3: HCB301-1 (Fc fusion)
chain: [about 120 residues not shown]KPSGSGGSGGSGGSGGSGGSGDSPDRPWNPPTFSPALLVVTEGDNATFTCSFSNTSESFVLNWYRMSPSNQTDKLAAFPEDRSQPGQDCRFRVTQLPNGRDFHMSVVRARRNDSGTYLCGAISLAPKAQIKESLRAELRVTERRAEVPTAHPSPSPRPAGQFQTLVGGGGSGGGGSGGGGSDSPDRPWNPPTFSPALLVVTEGDNATFTCSFSNTSESFVLNWYRMSPSNQTDKLAAFPEDRSQPGQDCRFRVTQLPNGRDFHMSVVRARRNDSGTYLCGAISLAPKAQIKESLRAELRVTERRAEVPTAHPSPSPRPAGQFQTLVESKYGPPCPPCPAPEFLGGPSVFLFPPKPKDTLMISRTPEVTCVVVDVSQEDPEVQFNWYVDGVEVHNAKTKPREEQFNSTYRVVSVLTVLHQDWLNGKEYKCKVSNKGLPSSIEKTISKAKGQPREPQVYTLPPSQEEMTKNQVSLTCLVKGFYPSDIAVEWESNGQPENNYKTTPPVLDSDGSFFLYSRLTVDKSRWQEGNVFSCSVMHEALHNHYTQKSLSLSLGAGGGGSGGGGSGGGGSGGGGSGIPPHVQKSVNNDMIVTDNNGAVKFPQLCKFCDVRFSTCDNQKSCMSNCSITSICEKPQEVCVAVWRKNDENITLETVCHDPKLPYHDFILEDAASPKCIMKEKKKPGETFFMCSCSSDECNDNIIFSEEYNTSNPD
notes: expressed in CHO-S cells

- EC50 [2]: 1.5 nM
- EC50 [3]: 217 nM
B2: HCB301-4 (Fc fusion)
chain: DSPDRPWNPPTFSPALLVVTEGDNATFTCSFSNTSESFVLNWYRMSPSNQTDKLAAFPEDRSQPGQDCRFRVTQLPNGRDFHMSVVRARRNDSGTYLCGAISLAPKAQIKESLRAELRVTERRAEVPTAHPSPSPRPAGQFQTLVGSGGSGGSGGSGGSGGSGEE[about 120 residues not shown]KPSESKYGPPCPPCPAPEFLGGPSVFLFPPKPKDTLMISRTPEVTCVVVDVSQEDPEVQFNWYVDGVEVHNAKTKPREEQFNSTYRVVSVLTVLHQDWLNGKEYKCKVSNKGLPSSIEKTISKAKGQPREPQVYTLPPSQEEMTKNQVSLTCLVKGFYPSDIAVEWESNGQPENNYKTTPPVLDSDGSFFLYSRLTVDKSRWQEGNVFSCSVMHEALHNHYTQKSLSLSLGAGGGGSGGGGSGGGGSGGGGSGIPPHVQKSVNNDMIVTDNNGAVKFPQLCKFCDVRFSTCDNQKSCMSNCSITSICEKPQEVCVAVWRKNDENITLETVCHDPKLPYHDFILEDAASPKCIMKEKKKPGETFFMCSCSSDECNDNIIFSEEYNTSNPD
notes: expressed in CHO-S cells
